Four compounds from patent US7998987B2, “Inhibitors of c-Met and uses thereof” (Vertex Pharmaceuticals Incorporated, priority 2005, dated 2011) can be followed below.

Chains of the proteins cited; added tags and fusions are not shown. Residues count along the entry.
UniProt P08581, 25-1390 limits assumed: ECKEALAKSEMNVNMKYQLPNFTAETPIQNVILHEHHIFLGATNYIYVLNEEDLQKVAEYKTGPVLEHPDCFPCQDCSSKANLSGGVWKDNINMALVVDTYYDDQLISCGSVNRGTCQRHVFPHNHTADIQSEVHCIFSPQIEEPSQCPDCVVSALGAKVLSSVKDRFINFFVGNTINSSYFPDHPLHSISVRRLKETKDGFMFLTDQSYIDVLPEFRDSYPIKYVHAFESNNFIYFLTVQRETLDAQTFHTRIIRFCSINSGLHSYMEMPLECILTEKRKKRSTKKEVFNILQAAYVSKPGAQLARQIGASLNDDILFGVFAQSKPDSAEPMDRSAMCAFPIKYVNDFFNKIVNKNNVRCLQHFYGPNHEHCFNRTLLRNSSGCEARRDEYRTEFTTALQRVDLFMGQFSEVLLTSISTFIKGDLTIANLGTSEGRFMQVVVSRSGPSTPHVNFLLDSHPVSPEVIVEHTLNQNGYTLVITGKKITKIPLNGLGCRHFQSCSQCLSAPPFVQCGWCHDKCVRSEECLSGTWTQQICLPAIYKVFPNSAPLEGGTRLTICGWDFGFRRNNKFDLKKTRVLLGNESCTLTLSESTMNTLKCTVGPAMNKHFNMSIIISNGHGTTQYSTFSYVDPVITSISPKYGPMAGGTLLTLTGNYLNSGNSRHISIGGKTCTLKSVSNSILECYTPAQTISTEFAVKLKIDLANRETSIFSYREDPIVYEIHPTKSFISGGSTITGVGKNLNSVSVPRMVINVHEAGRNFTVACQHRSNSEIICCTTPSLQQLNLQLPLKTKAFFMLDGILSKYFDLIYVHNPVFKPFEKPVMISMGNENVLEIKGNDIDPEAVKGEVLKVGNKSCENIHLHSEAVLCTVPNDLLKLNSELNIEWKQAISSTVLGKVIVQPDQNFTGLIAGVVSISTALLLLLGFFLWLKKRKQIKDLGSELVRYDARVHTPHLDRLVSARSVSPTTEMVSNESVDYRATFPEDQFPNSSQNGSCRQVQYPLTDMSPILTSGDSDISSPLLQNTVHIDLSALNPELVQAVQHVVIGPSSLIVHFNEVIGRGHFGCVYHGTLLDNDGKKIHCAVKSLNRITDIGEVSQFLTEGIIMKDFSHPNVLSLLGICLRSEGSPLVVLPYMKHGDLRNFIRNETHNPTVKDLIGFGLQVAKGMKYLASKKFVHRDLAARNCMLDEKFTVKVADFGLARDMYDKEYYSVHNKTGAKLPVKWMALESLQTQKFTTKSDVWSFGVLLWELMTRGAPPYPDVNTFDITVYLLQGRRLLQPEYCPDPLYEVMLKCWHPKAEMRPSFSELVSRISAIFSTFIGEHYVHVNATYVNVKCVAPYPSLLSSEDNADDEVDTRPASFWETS

The structures appear in SMILES notation. Like-named read-outs stand apart in the source and are kept apart here.

A word on the Ki: it is a measure of affinity in units of concentration, obtained from inhibition or displacement.

The assay deals with c-Met (Homo sapiens, UniProt P08581). In words: Ki determination for the inhibition of c-Met kinase activity (standard coupled enzyme system).
[1] abbreviates: read-out: c-Met Ki, 200 μM ATP, 80 nM c-Met, 30° C.

With `CC(c1ccc(O)cc1)c1nnc2n1N=C(c1cccs1)CS2` (stereo not shown), under setting [1], the Ki is < 100 nM.
Still for that read-out and setting: next, `OCCOc1ccc(Cl)cc1Nc1ccc2nnc(Cc3ccc(O)cc3)n2n1`: < 100 nM.
On to `Oc1ccc(Cc2nnc3sc(Nc4ccccc4)nn23)cc1F`, for which the Ki (read-out: c-Met Ki, 200 μM ATP, 10 μM polyGluTyr, 80 nM c-Met, 30° C.) was 100 to 2000 nM.
`C[C@@H](c1ccc(O)cc1)c1nnc2ccc(Nc3cc(Cl)ccc3OCCO)nn12`: the Ki under setting [1] is < 100 nM.
